Biological target: T1, Mitogen-activated protein kinase kinase kinase 7/TGF-beta-activated kinase 1 and MAP3K7-binding protein 1 (Homo sapiens, UniProt O43318+Q15750)
T1 sequence (O43318 whole entry): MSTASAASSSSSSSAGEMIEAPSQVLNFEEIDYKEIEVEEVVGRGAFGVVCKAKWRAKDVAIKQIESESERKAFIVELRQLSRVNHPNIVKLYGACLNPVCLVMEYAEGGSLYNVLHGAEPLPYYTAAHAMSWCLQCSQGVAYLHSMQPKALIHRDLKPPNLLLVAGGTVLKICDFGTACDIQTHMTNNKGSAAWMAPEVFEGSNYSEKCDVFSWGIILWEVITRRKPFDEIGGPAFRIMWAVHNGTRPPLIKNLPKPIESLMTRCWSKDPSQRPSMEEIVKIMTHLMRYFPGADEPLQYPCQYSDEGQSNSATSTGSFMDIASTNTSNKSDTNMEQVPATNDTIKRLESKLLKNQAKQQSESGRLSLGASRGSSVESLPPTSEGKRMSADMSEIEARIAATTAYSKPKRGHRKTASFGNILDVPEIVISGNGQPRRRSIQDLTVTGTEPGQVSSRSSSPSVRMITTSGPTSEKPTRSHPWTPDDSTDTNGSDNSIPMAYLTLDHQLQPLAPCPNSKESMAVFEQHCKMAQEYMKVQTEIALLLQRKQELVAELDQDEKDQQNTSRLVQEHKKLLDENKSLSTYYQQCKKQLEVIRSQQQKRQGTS
T1 sequence (Q15750 whole entry): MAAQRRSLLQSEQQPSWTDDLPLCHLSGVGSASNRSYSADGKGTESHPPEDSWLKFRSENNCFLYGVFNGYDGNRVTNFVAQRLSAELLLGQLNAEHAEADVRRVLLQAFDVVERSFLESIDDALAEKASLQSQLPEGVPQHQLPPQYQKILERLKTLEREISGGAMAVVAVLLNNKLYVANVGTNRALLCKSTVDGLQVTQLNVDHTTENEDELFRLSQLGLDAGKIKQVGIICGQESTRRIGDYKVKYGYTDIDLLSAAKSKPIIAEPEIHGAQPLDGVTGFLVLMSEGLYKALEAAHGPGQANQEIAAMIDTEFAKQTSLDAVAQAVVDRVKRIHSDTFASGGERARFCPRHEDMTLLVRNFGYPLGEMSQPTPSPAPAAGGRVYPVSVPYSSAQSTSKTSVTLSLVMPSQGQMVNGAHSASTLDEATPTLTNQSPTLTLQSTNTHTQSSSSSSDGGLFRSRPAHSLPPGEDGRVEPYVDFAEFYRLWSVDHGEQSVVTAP
Test: Inhibition of full length TAK1/TAB1 (unknown origin) using biotin-MKK6 as substrate by AlphaScreen assay

`COc1cc(O)c2c(c1)/C=C/C[C@H](O)[C@H](O)C(=O)/C=C\C[C@H](C)OC2=O` was tested, and the IC50 was 9 nM.
